Binding of CDR-mutated scFvs to a peptide of the spike HR2 region

All variants were tested on one target, the spike HR2 peptide PDVDLGDISGINAS (SARS-CoV-2).

Ab-14 is the parent antibody, in scFv form: VH, then a (GGGGS)3 linker, then VL. The heavy chain is unchanged in all variants.
VH: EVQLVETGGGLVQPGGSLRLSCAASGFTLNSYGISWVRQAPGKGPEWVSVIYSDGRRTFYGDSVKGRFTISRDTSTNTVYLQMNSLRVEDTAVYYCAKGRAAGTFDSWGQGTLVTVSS
VL: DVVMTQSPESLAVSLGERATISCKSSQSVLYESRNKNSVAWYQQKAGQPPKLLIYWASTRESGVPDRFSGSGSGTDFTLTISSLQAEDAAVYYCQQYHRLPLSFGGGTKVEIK

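Library AAYL50 holds single substitutions and randomly drawn double and triple substitutions in the CDRs. AlphaSeq pools MATa yeast showing the antibodies with MATalpha yeast showing the peptide. The frequency of each diploid, read from paired DNA barcodes, reflects how well the two displayed proteins bind. A regression on co-assayed BCL2-family reference pairs converts the normalised counts of each replicate to an apparent Kd. There are three technical replicates.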

Each variant is given by its three light chain CDRs, as the data file delimits them; those of the parent are KSSQSVLYESRNKNSVA, WASTRES, QQYHRLPLS.
Affinities are written as log10 Kd with Kd in nM; a lower number is a better binder.
A mean of the replicates is given; it leaves out those without a signal.
A pair that was not seen in that replicate is written "ND"; this usually means weak binding, but a binder can also be missed.

CDR-L1 | CDR-L2 | CDR-L3 | replicates, log10 nM | log10 Kd (nM), mean | control signals
KSSQSVLYESRNKNSVA | WASTGES | SQYHRLPLS | ND ND ND | ND | 2/9 (4.35)
KSSQSVLYESRNKNSVA | DPWTRES | QQYHRLPLS | ND 3.53 ND | 3.53 | 2/9 (5.65)
KSSNSVLYESRNKNSVA | WASTRCS | QAYHRLPLS | ND ND ND | ND | 1/9 (3.45)
ASSQSVLYESRNKQSVA | WASTRES | QQYHRLSLS | 2.24 2.23 2.83 | 2.44 | 2/9 (4.31)
KDSQSVLYEHRNKNSVA | WASTRES | QQYPRLPLS | ND ND ND | ND | 0/9
KSSQSKLYESRNKNSVA | QASTRES | QAYHRLPLS | -0.31 0.03 -0.17 | -0.15 | 2/9 (5.65)
KSSQSVLYESRNKNSVD | WASTRRS | QQYVRLPLS | ND 5.13 ND | 5.13 | 1/9 (4.09)
KNSQSVLYESRNANSVA | WASTRES | QQYHRLWLS | 1.92 2.55 2.25 | 2.24 | 1/9 (3.81)
KSSQSVLYESRNKNSVS | WASTREV | QQYHRLPMS | 4.33 3.67 ND | 4.00 | 3/9 (4.66)
KSSQSKLYESRNKNSVA | WASVRES | QQYHRLPRS | ND ND ND | ND | 0/9
KSSQSVLYESRNKNSVA | WACTRES | QFYHRLRLS | ND ND ND | ND | 4/9 (4.68)
KSSQSVLYESRNKVSVA | WASTRES | QQYHVAPLS | 3.87 4.24 ND | 4.06 | 3/9 (4.44)
SSSTSVLYESRNKNSVA | WASTRES | QQYHRLPLP | 3.22 2.72 2.51 | 2.82 | 2/9 (3.85)
KSSQSVLYESRESNSVA | WASTRES | QQYHRQPLS | 1.31 1.10 1.63 | 1.35 | 0/9
WSSQSELRESRNKNSVA | WASTRES | QQYHRLPLS | 1.95 2.14 2.25 | 2.11 | 5/9 (4.53)
KSHQSVLYESRNKNHVA | WASTREM | QQYHRLPLS | ND 3.11 3.99 | 3.55 | 1/9 (3.93)
CSSQSVLYESRNKMSVA | WASTRES | QQYHRLPLS | 4.93 ND 2.72 | 3.82 | 0/9
KSSQYVLYESRNKNFVA | WAFTRES | QQYHRLPLS | ND ND ND | ND | 1/9 (3.90)
KSIQSVLYESVNKRSVA | WASTRES | QQYHRLPLS | 1.95 1.96 2.86 | 2.25 | 0/9
KSSQSTLYESRNKNSTA | WASTRES | QQYHRLPLS | ND ND ND | ND | 1/9 (4.12)
KSSQTVLYESRNKESVA | WAFTRES | QQYHRLPLS | ND ND 3.59 | 3.59 | 0/9
KESQSVLYESRNKNSVA | WASTRES | QQYHRKPVS | 0.84 1.09 1.25 | 1.06 | 7/9 (4.32)
KSSQSVLEESRNKNSVA | WASTREE | QQDHRLPLS | 0.40 0.64 0.56 | 0.53 | 1/9 (5.24)
KSSQSVLYESRNKNSVA | WASTRES | QGYQRLPLA | ND 2.66 ND | 2.66 | 0/9
KSVQSVLYESRNKNYVA | WISTRES | QQYHRLPLS | ND ND ND | ND | 2/9 (3.40)
KSSQSVLFESRNKSSVA | WASTRVS | QQYHRLPLS | 1.17 1.22 1.33 | 1.24 | 1/9 (5.20)
KSSQSVLYESRNKPSVA | PASTRES | TQYHRLPLS | 5.68 5.58 4.43 | 5.23 | 6/9 (4.67)
KSSQSVLYESRNKNRVA | WASTRES | QQYHRLPLS | 4.37 3.16 3.14 | 3.56 | 3/9 (4.16)
KSSQSVLYESRNKNSFA | RASTRES | QQYHRLPLL | 1.43 2.23 2.32 | 1.99 | 0/9
KSSQSVLYESRNKRSVA | WASTRES | QQYHRLPLS | 1.51 1.51 1.58 | 1.53 | 4/9 (4.27)
KSWQSVRYESRNKNSVA | WASFRES | QQYHRLPLS | 3.61 ND ND | 3.61 | 1/9 (2.21)
KSSQSVLYVRRNKNSVA | WASTRES | QQYHRLPLQ | 3.84 ND ND | 3.84 | 3/9 (4.88)
KSSQWVLWESRNKNSVA | WAETRES | QQYHRLPLS | ND ND 3.55 | 3.55 | 1/9 (3.88)
KSSQSFLYESQNKNSVA | WASTRSS | QQYHRLPLS | 0.83 1.06 0.87 | 0.92 | 0/9
KSSQFVSYEERNKNSVA | WASTRES | QQYHRLPLS | ND ND 3.59 | 3.59 | 2/9 (3.37)
KSSQSVLYESRNKNSVA | WFVTRES | QQYHRYPLS | ND 5.76 ND | 5.76 | 6/9 (5.16)

The opening 2 entries, copied out:

{"CDR-L1": "KSSQSVLYESRNKNSVA", "CDR-L2": "WASTGES", "CDR-L3": "SQYHRLPLS", "replicates, log10 nM": "ND ND ND", "log10 Kd (nM), mean": "ND", "control signals": "2/9 (4.35)"}
{"CDR-L1": "KSSQSVLYESRNKNSVA", "CDR-L2": "DPWTRES", "CDR-L3": "QQYHRLPLS", "replicates, log10 nM": "ND 3.53 ND", "log10 Kd (nM), mean": "3.53", "control signals": "2/9 (5.65)"}

Three control strains display no target. For library AAYL50, 18% of the pairings with them gave a signal, with a median of 4.19 and one signal in twenty below 2.99, so weak values seen in few replicates may be background. The control count says in how many pairings with the empty strains this scFv gave a signal, with their mean in brackets.
Parent in this assay: reference entry 0.65, copy in this library 1.68.

The measurements come from Engelhart et al. 2022 (doi:10.1038/s41597-022-01779-4) through the FLAb antibody collection.